scFv variants of Ab-14 (light chain) against a SARS-CoV-2 spike peptide

Source: Li et al. 2023 (doi:10.1038/s41467-023-39022-2), MIT Lincoln Laboratory and A-Alpha Bio; data file from the FLAb repository.

The target is the same throughout: PDVDLGDISGINAS, from the HR2 region of SARS-CoV-2 spike.

Each scFv is VH, the linker GGGGSGGGGSGGGGS, VL, as in the parent Ab-14, and differs from it in the CDRs of the light chain only.
VH: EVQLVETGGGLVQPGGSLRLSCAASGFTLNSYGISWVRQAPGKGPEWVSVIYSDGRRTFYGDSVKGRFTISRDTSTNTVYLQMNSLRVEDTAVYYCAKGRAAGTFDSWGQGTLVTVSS
VL: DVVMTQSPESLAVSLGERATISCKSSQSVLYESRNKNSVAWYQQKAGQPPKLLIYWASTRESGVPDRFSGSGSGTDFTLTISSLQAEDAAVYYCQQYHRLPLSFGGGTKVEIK

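Phage display of a naive human antibody library on the peptide gave the parent. The variants were designed computationally from a first round of random CDR variants and then made and measured. Group labels follow the data file (Ctrl: baseline library sampled from a position-specific scoring matrix, with some repeated check sequences; En: ensemble of fine-tuned language models; GP: Gaussian process model; HC: hill climbing; Gen: genetic algorithm; Gibbs: Gibbs sampling; a sequence that several methods proposed may carry one label only). Affinity was read by AlphaSeq, a pooled yeast mating assay with surface-displayed partners. The frequency of each diploid, read from paired DNA barcodes, reflects how well the two displayed proteins bind. Read counts were normalised to the haploid input and turned into Kd by a linear fit to BCL2-family pairs of known affinity, for each replicate. Mating was done six times.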

Variants are written as CDR1, CDR2 and CDR3 of the light chain (limits as in the source). Parent: KSSQSVLYESRNKNSVA, WASTRES, QQYHRLPLS.
Values are apparent Kd, the geometric mean of the replicates that gave a signal; lower means stronger binding.
"no signal" marks a missing value. The strain was present, yet no cells mated with the target were sequenced in any replicate, which points to weak or no binding.
Empty control strains, which show no peptide, gave a signal in 4% of pairings with all light chain designs; the median was 430 nM and 95% of these signals were weaker than 38 nM. No background was subtracted.
The range of this assay differs from that of the first round, and the authors advise against merging the two.
Of ten entries with the parent sequence, four were seen in most replicates (averages 2.2 nM to 240 nM), three in one and three in none, so single entries are noisy.
In the paper, a design with two or fewer of six values counts as a poor binder.

With KISQSVLYESRNWNAVA | EASTRES | QDYHRLPLS [GP_Gibbs] the result was 2.0 nM (6 of 6 replicates).
With QLLMATMQETYNKNSVA | HAETRED | QSYHRLPLS [En_HC] the result was 13 nM (6 of 6 replicates).
With NIQDNEGGLSSQWNSVA | STEERSD | QSYHRLPLS [En_Gibbs] the result was 6.0 nM (6 of 6 replicates).
With KKSQSVLYESRNKNSVA | WAKTRES | QQYHRLPLS [Ctrl] the result was no signal (0 of 6 replicates).
With NISESMYYQSRIKNNIA | EMSTRER | QHYHRLPLS [En_HC] the result was 9.7 nM (6 of 6 replicates).
With KFVQSDDYESRNKNSVA | QASQREQ | QQYHRLPLS [GP_Gibbs] the result was 920 pM (6 of 6 replicates).
With MISDLTMYGSRNKNSVA | DLSTRGS | QQYDRLPLS [En_HC] the result was 2.3 nM (6 of 6 replicates).
With KSSQSVLYESRNKNSVA | WASTRES | QQYHRHPSS [Ctrl] the result was no signal (0 of 6 replicates).
With KLSQSGLYGERNKMSVA | QASQRES | QQYHRLPLS [GP_Gibbs] the result was 1.4 nM (6 of 6 replicates).
With KLDQGALYESRNKNSVA | GASTRES | QQYHRLPLS [GP_HC] the result was 650 pM (6 of 6 replicates).
With KFSQSFLYESRNKNSVA | GASTRES | QEYHRLPLS [GP_HC] the result was 1.8 nM (6 of 6 replicates).
With MLSMVADISQKNRNSVA | EMTTREK | QQYDRLPLE [En_Gen] the result was 1.4 nM (6 of 6 replicates).
With KLSQSELYESRNPNSVA | NASQRES | QQYHRLPLS [GP_Gen] the result was 610 pM (6 of 6 replicates).
With KLSMFHNLESINKSNVA | EMVTREN | QQYDRLPLS [En_HC] the result was 170 nM (5 of 6 replicates).
With KSRQSGVGESRNKSSVA | QASTRES | QQYHRLPLS [Ctrl] the result was 41 nM (4 of 6 replicates).
With KISQSVLYESRNKNSVA | DASTRCS | QQYHRLPLS [GP_Gen] the result was 590 pM (6 of 6 replicates).
With KLGAWMYWGTEAKYAIA | QDEMRVH | QQYDRLPLT [En_Gibbs] the result was no signal (0 of 6 replicates).
With KLPQKWLYESRNKNNVA | SASCRES | QQYHRLPLS [GP_Gibbs] the result was 1.4 nM (6 of 6 replicates).
With KSSQSYPYESRNKNSVA | GASTRES | QQYHRLPLS [GP_HC] the result was 3.8 nM (6 of 6 replicates).
With KVQQSMEYESRNKNSVA | EASDRES | QDYHRLPLF [GP_Gibbs] the result was 21 nM (6 of 6 replicates).
With KSSQSILYESHNFNSVA | EASTRES | QQYHRLPLS [Ctrl] the result was 1.8 nM (6 of 6 replicates).
With QLLMATMQGEYNRNSVA | HAQTRND | QSYHRLPLS [En_HC] the result was 12 nM (6 of 6 replicates).
With KSSTSVLYESRNKNGVA | WATTRES | QQYHRLPWS [Ctrl] the result was 50 nM (1 of 6 replicates).
With KFEGSHLYESRMGNSVA | NASQRED | QQYHRLPLS [GP_Gibbs] the result was 490 pM (6 of 6 replicates).
With KLQQSMLYESRNKNSVA | NASTRLS | QQYHRLPLS [GP_Gen] the result was 600 pM (6 of 6 replicates).
With KLEQSDLYESRNKNSVA | GASTRES | QQYHRLPLS [GP_Gen] the result was 400 pM (6 of 6 replicates).
With KSSQSVLYESRFKNSVA | NASTRES | QQYHRLPLS [Ctrl] the result was 9.7 nM (6 of 6 replicates).
With KLPQSMEYESRNKNSVA | HASTRES | QQYHRLPLS [GP_Gibbs] the result was 460 pM (6 of 6 replicates).
With KSSQSVLYEKRNENSVA | DASTRES | QQYHRLPLS [Ctrl] the result was 650 pM (6 of 6 replicates).
With KASQSVEYESRNKNSVA | EASTRES | QQYARLPLS [Ctrl] the result was 420 pM (6 of 6 replicates).
With KLQFSCLYESRNQNSVA | SASYRLS | QQYHRLPLS [GP_Gibbs] the result was 61 nM (6 of 6 replicates).
With KSSQSVLIESRNMNSVA | QASTRES | QQYHRLPLS [Ctrl] the result was 2.1 nM (6 of 6 replicates).
With KISESVLYESTNKNSVA | WASTRPS | QQYHKLPLS [Ctrl] the result was 100 nM (4 of 6 replicates).
With KSSQGLLYESRNKNSVA | WASTRES | QQYHRLPLS [Ctrl] the result was 58 nM (6 of 6 replicates).
With AQSFSHLGSSRNKNSVA | EASTREQ | QQYHRLPLS [GP_Gibbs] the result was 1.8 nM (6 of 6 replicates).

Excerpt, the final 4 entries:

| CDR-L1 | CDR-L2 | CDR-L3 | group | Kd (apparent) | seen in |
|---|---|---|---|---|---|
| KSSQSVLIESRNMNSVA | QASTRES | QQYHRLPLS | Ctrl | 2.1 nM | 6/6 |
| KISESVLYESTNKNSVA | WASTRPS | QQYHKLPLS | Ctrl | 100 nM | 4/6 |
| KSSQGLLYESRNKNSVA | WASTRES | QQYHRLPLS | Ctrl | 58 nM | 6/6 |
| AQSFSHLGSSRNKNSVA | EASTREQ | QQYHRLPLS | GP_Gibbs | 1.8 nM | 6/6 |